Reference: PubChem BioAssay (NCI)
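Five compound concentrations were applied to cells in 96-well plates for 48 hours; endpoints were derived by simple linear interpolation of the resulting dose-response curve. Definition used: TGI = concentration required for complete inhibition of growth.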

How the values were obtained:
Assay in all cases: DTP human tumour cell line panel, 48 h
SW-620 colon = tested on: SW-620 colon
NCI-H23 lung = tested on: NCI-H23 lung
M14 melanoma = tested on: M14 melanoma
UO-31 renal = tested on: UO-31 renal
T-47D breast = tested on: T-47D breast
A549 NSCLC = tested on: A549 NSCLC
MALME-3M melanoma = tested on: MALME-3M melanoma
K-562 leukemia = tested on: K-562 leukemia
SK-MEL-5 melanoma = tested on: SK-MEL-5 melanoma
RXF 393 renal = tested on: RXF 393 renal
HL-60(TB) leukemia = tested on: HL-60(TB) leukemia
OVCAR-8 ovarian = tested on: OVCAR-8 ovarian
MDA-N = tested on: MDA-N
NCI-H226 lung = tested on: NCI-H226 lung
SR leukemia = tested on: SR leukemia
MCF7 breast = tested on: MCF7 breast
OVCAR-4 ovarian = tested on: OVCAR-4 ovarian
NCI-H322M lung = tested on: NCI-H322M lung
SK-MEL-28 melanoma = tested on: SK-MEL-28 melanoma
SF-268 CNS = tested on: SF-268 CNS
A498 renal = tested on: A498 renal
OVCAR-5 ovarian = tested on: OVCAR-5 ovarian
IGROV1 ovarian = tested on: IGROV1 ovarian
UACC-62 melanoma = tested on: UACC-62 melanoma
NCI/ADR-RES ovarian = tested on: NCI/ADR-RES ovarian
COLO 205 colon = tested on: COLO 205 colon
SNB-19 CNS = tested on: SNB-19 CNS
NCI-H522 lung = tested on: NCI-H522 lung
HCT-116 colon = tested on: HCT-116 colon
BT-549 breast = tested on: BT-549 breast
NCI-H460 lung = tested on: NCI-H460 lung
OVCAR-3 ovarian = tested on: OVCAR-3 ovarian
PC-3 prostate = tested on: PC-3 prostate
DU-145 prostate = tested on: DU-145 prostate
HS 578T breast = tested on: HS 578T breast
MOLT-4 leukemia = tested on: MOLT-4 leukemia
HCC-2998 colon = tested on: HCC-2998 colon
HT29 colon = tested on: HT29 colon
SK-OV-3 ovarian = tested on: SK-OV-3 ovarian
RPMI-8226 leukemia = tested on: RPMI-8226 leukemia
SF-539 CNS = tested on: SF-539 CNS
SN12C renal = tested on: SN12C renal
HOP-62 NSCLC = tested on: HOP-62 NSCLC
EKVX NSCLC = tested on: EKVX NSCLC
CAKI-1 renal = tested on: CAKI-1 renal
HOP-92 NSCLC = tested on: HOP-92 NSCLC
KM12 colon = tested on: KM12 colon
SF-295 CNS = tested on: SF-295 CNS
MDA-MB-231 breast = tested on: MDA-MB-231 breast
SK-MEL-2 melanoma = tested on: SK-MEL-2 melanoma
TK-10 renal = tested on: TK-10 renal
LOX IMVI melanoma = tested on: LOX IMVI melanoma
MDA-MB-435 = tested on: MDA-MB-435
U251 CNS = tested on: U251 CNS
786-0 renal = tested on: 786-0 renal
ACHN renal = tested on: ACHN renal
CCRF-CEM leukemia = tested on: CCRF-CEM leukemia
UACC-257 melanoma = tested on: UACC-257 melanoma
HCT-15 colon = tested on: HCT-15 colon
SNB-75 CNS = tested on: SNB-75 CNS

## CC1=CC23C(COC(=O)C24CO4)C(C(=O)O)=CC3C1C (stereo not given)
SW-620 colon
  TGI: > 100 µM
NCI-H23 lung
  TGI: 82.6 µM
M14 melanoma
  TGI: 17.4 µM
UO-31 renal
  TGI: 82 µM
T-47D breast
  TGI: 41.4 µM
A549 NSCLC
  TGI: 82.2 µM
MALME-3M melanoma
  TGI: 17.6 µM
K-562 leukemia
  TGI: 45.8 µM
SK-MEL-5 melanoma
  TGI: 59.8 µM
RXF 393 renal
  TGI: 17.9 µM
HL-60(TB) leukemia
  TGI: 61.1 µM
OVCAR-8 ovarian
  TGI: 62 µM
MDA-N
  TGI: 75.5 µM
NCI-H226 lung
  TGI: 45.4 µM
SR leukemia
  TGI: 81.4 µM
MCF7 breast
  TGI: > 100 µM
OVCAR-4 ovarian
  TGI: 80.1 µM
NCI-H322M lung
  TGI: 74.8 µM
SK-MEL-28 melanoma
  TGI: 5.29 µM
SF-268 CNS
  TGI: 24.8 µM
A498 renal
  TGI: 64 µM
OVCAR-5 ovarian
  TGI: > 100 µM
IGROV1 ovarian
  TGI: 75.9 µM
UACC-62 melanoma
  TGI: 28.7 µM
NCI/ADR-RES ovarian
  TGI: 41.9 µM
COLO 205 colon
  TGI: 92.5 µM
SNB-19 CNS
  TGI: 31.5 µM
NCI-H522 lung
  TGI: 4.32 µM
HCT-116 colon
  TGI: 87.7 µM
BT-549 breast
  TGI: 61 µM
NCI-H460 lung
  TGI: 58.6 µM
OVCAR-3 ovarian
  TGI: 95.4 µM
PC-3 prostate
  TGI: 50.2 µM
DU-145 prostate
  TGI: 82.7 µM
HS 578T breast
  TGI: 8.31 µM
MOLT-4 leukemia
  TGI: 45.2 µM
HCC-2998 colon
  TGI: 38.5 µM
HT29 colon
  TGI: 69.5 µM
SK-OV-3 ovarian
  TGI: 71.6 µM
RPMI-8226 leukemia
  TGI: 8.88 µM
SF-539 CNS
  TGI: 54.5 µM
SN12C renal
  TGI: 14.1 µM
HOP-62 NSCLC
  TGI: 60.3 µM
EKVX NSCLC
  TGI: 98 µM
CAKI-1 renal
  TGI: 39.4 µM
HOP-92 NSCLC
  TGI: 43.5 µM
KM12 colon
  TGI: 31.1 µM
SF-295 CNS
  TGI: > 100 µM
MDA-MB-231 breast
  TGI: 96.4 µM
SK-MEL-2 melanoma
  TGI: 8.99 µM
TK-10 renal
  TGI: 94.6 µM
LOX IMVI melanoma
  TGI: 29.9 µM
MDA-MB-435
  TGI: 89 µM
U251 CNS
  TGI: > 100 µM
786-0 renal
  TGI: 74.6 µM
ACHN renal
  TGI: 79.5 µM
CCRF-CEM leukemia
  TGI: 27.6 µM
UACC-257 melanoma
  TGI: 88.8 µM
HCT-15 colon
  TGI: 69.5 µM
SNB-75 CNS
  TGI: 65.2 µM
